Earlier results as cited in patent US20090134028A1, “Method of Estimating Effect of Test Chemical on Living Organisms” (Chemicals Evaluation and Research Institute, priority 2005, published 2009).
Read-outs that look alike come from different tables or passages of the source.

Details: known carcinogenicity of chemical, cited from earlier work

CN(N=O)C(=N)N[N+](=O)[O-]
Carcinogenicity (Tables 1 to 3): +
Carcinogenicity (Tables 8 to 11): +
